This test has as its target T1, GPR7 (Homo sapiens, UniProt P48145).
T1 sequence (P48145 1-328): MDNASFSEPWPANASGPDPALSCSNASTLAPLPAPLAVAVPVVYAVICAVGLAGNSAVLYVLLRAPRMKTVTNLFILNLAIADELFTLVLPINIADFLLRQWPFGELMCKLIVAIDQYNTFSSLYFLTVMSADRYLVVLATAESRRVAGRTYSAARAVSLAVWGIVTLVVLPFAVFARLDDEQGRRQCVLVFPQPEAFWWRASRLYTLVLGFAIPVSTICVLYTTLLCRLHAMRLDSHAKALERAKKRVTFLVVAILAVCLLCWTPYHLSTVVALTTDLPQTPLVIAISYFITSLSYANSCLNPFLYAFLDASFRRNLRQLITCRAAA
The test is described as follows: Intracellular cAMP production suppression activity on human GPR7-expressed CHO cells. To be noted: forskolin-promoted cAMP production; receptor-expressed CHO cells; read-out: IC50 (nM) human GPR7, cAMP production inhibition. The test is classed as cell-based. On the set-up: The synthetic primers were constructed so as to amplify the gene in the region to be translated to its receptor protein; expressed in transfected cells; host or cells: CHO cells, membrane fraction. As to the method: The intracellular cAMP production suppression activity of peptides associated with various GPR7 ligands on CHO cells, in which human GPR7, bovine GPR8, human GPR8, human GPR8, bovine GPR8 and rat GPR7 were expressed, was examined. […] An assay buffer was prepared by adding 20 mM HEPES, pH7.4, 0.1% bovine serum albumin and 0.2 mM 3-isobutyl-1-methylxanthine (Sigma) to Hanks' Balanced Salt Solution (Gibco BRL). The plate incubated overnight was first washed twice with 150 μl of the assay buffer, and then exchanged with 150 μl of the assay buffer, followed by incubation for 30 minutes at 37° C. in 100% air. By adding 4 μM forskolin to the assay buffer, a buffer for sample dilution was prepared and the stock solution (10^−2 M of 10^−3 M) was diluted with the buffer thus obtained to prepare sample solutions in final concentrations of 10^−6 M, 10^−7 M, 10^−8 M, 10^−9 M and 10^−10 M. The plate incubated with the assay buffer for 30 minutes was taken out. After washing twice with the assay buffer, 50 μl of the assay buffer and then 50 μl of the sample solution were added thereto. Each sample was assayed in triplet. […] A difference between the maximum cAMP level and the cAMP level when each sample was added was calculated and the percentage of cAMP production level promoted by forskolin was worked out, which was made the cAMP production inhibition rate.

As for `CC(C)C[C@H](NC(=O)CNC(=O)[C@H](CO)NC(=O)[C@H](CC(C)C)NC(=O)[C@H](CC(C)C)NC(=O)CNC(=O)[C@H](C)NC(=O)[C@H](C)NC(=O)[C@H](CCCNC(=N)N)NC(=O)CNC(=O)[C@@H](NC(=O)[C@H](CO)NC(=O)[C@H](Cc1ccc(O)cc1)NC(=O)[C@H](CO)NC(=O)[C@H](CO)NC(=O)[C@H](Cc1c[nH]cn1)NC(=O)CNC(=O)[C@H](C)NC(=O)[C@H](C)NC(=O)[C@@H]1CCCN1C(=O)[C@H](CCCCN)NC(=O)[C@H](Cc1ccc(O)cc1)NC(=O)[C@@H](N)Cc1c[nH]c2ccccc12)C(C)C)C(=O)O` [Trp1-human GPR7L(23)], the IC50 worked out at 0.58 nM.
